According to US20240424134A1, “PEPTIDE HAVING INDEPENDENTLY STABILIZED HYDROPHOBIC ALPHA HELIX, PEPTIDE COMPLEX COMPRISING SAME AND USES THEREOF” (UIF (University Industry Foundation), Yonsei University, priority 2022, published 2024):

Assays:
[1] = CD (circular dichroism) spectroscopy of α-helix structure; type: physicochemical; details: Table 11; peptide complexes of Examples 37-97
[2] = AFM analysis of self-assembled peptide complexes; type: physicochemical; details: Table 12, self-assembled structure; for AFM morphology: 25 μM in distilled water
Protocol: AFM was performed using an NX10 system (Park Systems, Korea) in a non-contact mode with PPP-NCHR AFM probes (Nanosensors, Switzerland). The DNA concentration ranged from 1 to 30 ng/μL and the peptide concentration ranged from 1 to 32 μM (in H2O). 2 μL of the sample solution was cast onto a freshly cleaved mica surface and dried. The data obtained by the SmartScan program (Park Systems, Korea) was analyzed using the XEI program (Park Systems, Korea).
The CD spectroscopy was performed in the same manner as in Test Example 2 and the AFM was performed using the NX10 system (Park Systems, Korea) in a non-contact mode with PPP-NCHR AFM probes (Nanosensors, Switzerland). The peptide complex concentration ranged from 1 to 32 μM (in H2O). 2 μL of the sample solution was cast onto a freshly cleaved mica surface and dried. The data obtained by the SmartScan program (Park Systems, Korea) were analyzed using the XEI program (Park Systems, Korea).
The peptide complexes of Examples 37-40 were imaged by AFM. 25 μM of the peptide complex was dissolved in distilled water, sonicated for 5 minutes, incubated overnight and dropped on mica for measurement.

Substance | θ222 nm/θ208 nm ratio [1] | Average diameter (nm) [2] | AFM morphology [2]
Glucose-(PEG8)2AUAUAUAUAUAUAUAUAUAUAE [Example 96] | 1.15 | 130-190 nm | Vesicle
Glucose-(PEG8)2AUAUAUAUAUAUAUAUAUAUAEE [Example 97] | 1.11 | – | –
Glucose-(PEG8)2AUAUAUAUAUAUAUAUAUAUAR [Example 80] | 1.2 | 20-30 nm | Micelle
Glucose-(PEG8)3AUAUAUAUAUAUAUAUAUAUAR [Example 81] | 1.15 | 20-30 nm | Micelle
Glucose-(PEG8)3AUAUAUAUAUAUAUAUAUAUAUAUAUARR [Example 82] | 1.13 | 120-140 nm | Vesicle
Glucose-(PEG8)4AUAUAUAUAUAUAUAUAUAUAUAUAUARR [Example 83] | 1.08 | 40-80 nm | Vesicle
Glucose-(PEG8)4AUAUAUAUAUAUAUAUAUAUAUAUAUAUAUAUARR [Example 84] | 1.22 | – | –
Glucose-(PEG8)5AUAUAUAUAUAUAUAUAUAUAUAUAUAUAUAUARR [Example 85] | 1.18 | – | –
Glucose-GSAUAUAUAUAUAUAUAUAUAUAR [Example 86] | 1.14 | – | –
Glucose-GSGSAUAUAUAUAUAUAUAUAUAUAR [Example 87] | 1.08 | – | –
Glucose-GSGSGSAUAUAUAUAUAUAUAUAUAUAR [Example 88] | – | 100-140 nm | Vesicle
Glucose-GSGSGSGSAUAUAUAUAUAUAUAUAUAUAR [Example 89] | – | 70-80 nm | Vesicle
RAUAUAUAUAUAUAUAUAUAUA(PEG8)2-glucose [Example 76] | 1.18 | 50-160 nm | Vesicle
RRAUAUAUAUAUAUAUAUAUAUA(PEG8)2-glucose [Example 77] | 1.09 | 50-190 nm | Vesicle
RRRAUAUAUAUAUAUAUAUAUAUA(PEG8)2-glucose [Example 78] | 1.04 | 80-320 nm | Vesicle
RRRRAUAUAUAUAUAUAUAUAUAUA(PEG8)2-glucose [Example 79] | – | 450-500 nm | Vesicle
